# Values of other authors in patent publication US20230263825A1, “ANTI-CANCER ACTIVITY OF PERBORATE SALTS” (priority 2020, published 2023).
# Key:
# [1] = up to 18 mg of boron daily in adults; cited from earlier work
# [2] = mammalian systems; cited from earlier work
structure (smiles),measurement,setting,value
[B] [boron],side effects,[1],does not cause any side effects
same,time to excretion through the urinary tract,[2],≤ 96 h
